According to patent US10000452B1, “Quinolone-based compounds, formulations, and uses thereof” (University of South Florida, priority 2016, dated 2018):

Columns and labels:
Pb-infected mice = assay: in vivo efficacy scouting assay against blood stages; parameters: species or system P. berghei; mice; details: vs untreated animals; for % Inhibition Day 3 PI / % Inhibition Day 6 PI: single oral 50 mg/kg dose 1 day PI
Protocol: The screening involved a single oral 50 mg/kg dose 1 day post infection (PI) and an assessment of parasitemia on days 3 PI and 6 PI (Table 6).
The screening was performed by treating two infected mice with a single 50 mg/kg oral dose of test compound suspended in PEG400 on day 1 postexposure (PE) followed by assessing parasitemia on days 3 and 6 PE.

[1] = test system: malarial strain TM90-C2B (mefloquine, chloroquine, atovaquone, and pyrimethamine-resistant); type: cell-based, P. falciparum; details: RI = EC50 TM90-C2B/EC50 W2
Text: Ideally, the RI of a compound should lie between 0.3 and 3.0 in order to avoid rapidly inducing resistance in the parasite. […]

[2] = test system: P. berghei sporozoite infected mice; assay: in vivo efficacy against liver stages, bioluminescence imaging; details: single dose 1 hour after infection
Protocol: Animals (n=5 per group) received a single dose by gavage 1 hour after inoculation with sporozoites. Representative images taken at 44 h, day 6, day 9, and day 13 after infection are shown. At 44 h, bioluminescent signal was detected in control untreated animals, with the highest intensity noted in the area overlaying the liver, consistent with the presence of liver-stage parasites.
At 44 h PI, day 6 PI, day 9 PI, and day 13 PI, compound efficacy was determined by bioluminescence imaging via injection of D-luciferin. Both compounds were administered orally or subcutaneously at increasing doses of 25 mg/kg, 50 mg/kg, and 100 mg/kg in PEG 400. […] Progression of parasitemia was monitored up to 30 days after infection (Table 8).

| SMILES | % Inhibition Day 3 PI (Pb-infected mice) [%] | RI [1] | other results |
| --- | --- | --- | --- |
| COC(=O)c1c[nH]c2cc(N3CCN(c4ccccc4)CC3)ccc2c1=O [Compound 8a, Methyl 4-oxo-7-(4-phenylpiperazin-1-yl)-1,4-dihydroquinoline-3-carboxylate] | 38.5 | – | – |
| COC(=O)c1c[nH]c2cc(CN3CCN(c4ccc(F)cc4)CC3)c(OC)cc2c1=O [Compound 8aa, Methyl 7-((4-(4-fluorophenyl)piperazin-1-yl)methyl)-6-methoxy-4-oxo-1,4-dihydroquinoline-3-carboxylate] | 100 | 122 | – |
| COC(=O)c1c[nH]c2cc(CCN3CCN(Cc4ccccc4)CC3)ccc2c1=O [Compound 8ad, Methyl 7-(2-(4-benzylpiperazin-1-yl)ethyl)-4-oxo-1,4-dihydroquinoline-3-carboxylate] | – | 53.2 | – |
| COC(=O)c1c[nH]c2ccc(CN3CCN(c4ccc(OC)cc4)CC3)cc2c1=O [Compound 8ag, Methyl 6-((4-(4-methoxyphenyl)piperazin-1-yl)methyl)-4-oxo-1,4-dihydroquinoline-3-carboxylate] | 84.6 | – | – |
| O=c1c(Br)c[nH]c2cc(CN3CCN(c4ccc(F)cc4)CC3)ccc12 [Compound 8ak, 3-Bromo-7-((4-(4-fluorophenyl)piperazin-1-yl)methyl) quinolin-4(1H)-one] | – | 2.99 | – |
| O=c1c(Cl)c[nH]c2cc(CN3CCN(c4ccc(F)cc4)CC3)ccc12 [Compound 8al, 3-Chloro-7-((4-(4-fluorophenyl)piperazin-1-yl)methyl)quinolin-4(1H)-one] | 100 | 2.16 | – |
| Cc1[nH]c2cc(CN3CCN(c4ccc(F)cc4)CC3)ccc2c(=O)c1Cl [Compound 8ao, 3-Chloro-7-((4-(4-fluorophenyl)piperazin-1-yl)methyl)-2-methylquinolin-4(1H)-one] | – | 1.35 | – |
| COC(=O)c1c[nH]c2cc(N3CCN(c4ccccc4)CC3)c(C)cc2c1=O [Compound 8c, Methyl 6-methyl-4-oxo-7-(4-phenylpiperazin-1-yl)-1,4-dihydroquinoline-3-carboxylate] | 80.0 | 24.4 | – |
| COC(=O)c1c[nH]c2cc(N3CCN(c4ccccc4)CC3)c(OC)cc2c1=O [Compound 8d, Methyl 6-methoxy-4-oxo-7-(4-phenylpiperazin-1-yl)-1,4-dihydroquinoline-3-carboxylate] | 70.0 | – | – |
| COC(=O)c1c[nH]c2cc(N3CCN(Cc4ccccc4)CC3)c(OC)cc2c1=O [Compound 8h, Methyl 7-(4-benzylpiperazin-1-yl)-6-methoxy-4-oxo-1,4-dihydroquinoline-3-carboxylate] | 100 | – | – |
| COC(=O)c1c[nH]c2cc(CN3CCN(Cc4ccccc4)CC3)ccc2c1=O [Compound 8k, Methyl 7-((4-benzylpiperazin-1-yl)methyl)-4-oxo-1,4-dihydroquinoline-3-carboxylate] | 100 | – | – |
| COC(=O)c1c[nH]c2cc(CN3CCN(Cc4ccc(OC)cc4)CC3)ccc2c1=O [Compound 8l, Methyl 7-((4-(4-methoxybenzyl)piperazin-1-yl)methyl)-4-oxo-1,4-dihydroquinoline-3-carboxylate] | 69.2 | – | % Inhibition Day 9 PI ([2]; 50 mg/kg oral): 38.8%; % Inhibition Day 9 PI ([2]; 100 mg/kg oral): 43.9%; % Inhibition Day 6 PI (Pb-infected mice): 41.2% |
| COC(=O)c1c[nH]c2cc(CN3CCN(Cc4ccc5c(c4)OCO5)CC3)ccc2c1=O [Compound 8m, Methyl 7-((4-(benzo[d][1,3]dioxol-5-ylmethyl)piperazin-1-yl)methyl)-4-oxo-1,4-dihydroquinoline-3-carboxylate] | 40.0 | – | – |
| COC(=O)c1c[nH]c2cc(CN3CCN(c4ccc(OC)cc4)CC3)ccc2c1=O [Compound 8n, Methyl 7-((4-(4-methoxyphenyl)piperazin-1-yl)methyl)-4-oxo-1,4-dihydroquinoline-3-carboxylate] | 100 | 62.4 | – |
| COC(=O)c1c[nH]c2cc(CN3CCN(c4ccc(F)cc4)CC3)ccc2c1=O [Compound 8o, Methyl 7-((4-(4-fluorophenyl)piperazin-1-yl)methyl)-4-oxo-1,4-dihydroquinoline-3-carboxylate] | – | – | % Inhibition Day 6 PI (Pb-infected mice): 98.0% |
| COC(=O)c1c[nH]c2cc(CN3CCN(c4ccc(C(F)(F)F)cc4)CC3)ccc2c1=O [Compound 8p, Methyl 4-oxo-7-((4-(4-(trifluoromethyl)phenyl)piperazin-1-yl)methyl)-1,4-dihydroquinoline-3-carboxylate] | – | – | inhibition in vivo at 50 mg/kg (Pb-infected mice; Plasmodium berghei, po, 144 h, read-out: % Inhibition Day 6 PI, single oral 50 mg/kg dose 1 day PI): 100% |
| COC(=O)c1c[nH]c2cc(CN3CCN(c4ccccc4)CC3)c(C)cc2c1=O [Compound 8q, Methyl 6-methyl-4-oxo-7-((4-phenylpiperazin-1-yl)methyl)-1,4-dihydroquinoline-3-carboxylate] | 46.2 | – | – |
| COC(=O)c1c[nH]c2cc(CN3CCN(Cc4ccccc4)CC3)c(C)cc2c1=O [Compound 8r, Methyl 7-((4-benzylpiperazin-1-yl)methyl)-6-methyl-4-oxo-1,4-dihydroquinoline-3-carboxylate] | 100 | 614 | – |
| COC(=O)c1c[nH]c2cc(CN3CCN(Cc4ccc(OC)cc4)CC3)c(C)cc2c1=O [Compound 8s, Methyl 7-((4-(4-methoxybenzyl)piperazin-1-yl)methyl)-6-methyl-4-oxo-1,4-dihydroquinoline-3-carboxylate] | 80.0 | – | – |
| COC(=O)c1c[nH]c2cc(CN3CCN(c4ccc(OC)cc4)CC3)c(C)cc2c1=O [Compound 8t, Methyl 7-((4-(4-methoxyphenyl)piperazin-1-yl)methyl)-6-methyl-4-oxo-1,4-dihydroquinoline-3-carboxylate] | 100 | – | – |
| COC(=O)c1c[nH]c2cc(CN3CCN(c4ccc(F)cc4)CC3)c(C)cc2c1=O [Compound 8u, Methyl 7-((4-(4-fluorophenyl)piperazin-1-yl)methyl)-6-methyl-4-oxo-1,4-dihydroquinoline-3-carboxylate] | – | 413 | – |
| COC(=O)c1c[nH]c2cc(CN3CCN(c4ccccc4)CC3)c(OC)cc2c1=O [Compound 8w, Methyl 6-methoxy-4-oxo-7-((4-phenylpiperazin-1-yl)methyl)-1,4-dihydroquinoline-3-carboxylate] | 100 | 304 | – |
| COC(=O)c1c[nH]c2cc(CN3CCN(Cc4ccccc4)CC3)c(OC)cc2c1=O [Compound 8x, Methyl 7-((4-benzylpiperazin-1-yl)methyl)-6-methoxy-4-oxo-1,4-dihydroquinoline-3-carboxylate] | 80.0 | 519 | – |
| COC(=O)c1c[nH]c2cc(CN3CCN(Cc4ccc(OC)cc4)CC3)c(OC)cc2c1=O [Compound 8y, Methyl 6-methoxy-7-((4-(4-methoxybenzyl)piperazin-1-yl)methyl)-4-oxo-1,4-dihydroquinoline-3-carboxylate] | 100 | 276 | – |
| COC(=O)c1c[nH]c2cc(CN3CCN(c4ccc(OC)cc4)CC3)c(OC)cc2c1=O [Compound 8z, Methyl 6-methoxy-7-((4-(4-methoxyphenyl)piperazin-1-yl)methyl)-4-oxo-1,4-dihydroquinoline-3-carboxylate] | 100 | 255 | – |
